# Measured values from patent US7427590B2, “Neurothrophic components of the ADNF I complex” (The United States of America as represented by the …, priority 2001, dated 2008).
# Test system: dissociated cerebral cortical cultures
# Conditions: TTX-treated cerebral cortical cultures
sequence,measurement,value
NPSGTDWLNTNNQANPFN,Neuronal survival with synthesized peptide,increase in neuronal survival
